The record followed here is patent US20220252575A1, “SCREENING METHOD AND TOXICITY EVALUATION METHOD” (Public University Corporation Yokohama City University, priority 2019, published 2022).

Assay [1] has as its system plural cells other than vascular endothelial cell from pluripotent stem cell. Put plainly: MAC deposition experiment in plural cells other than vascular endothelial cell induced from pluripotent stem cell. Format: cell-based, human. Particulars: complement having activity, regardless of cell type. The method, then: The present inventors have further studied based on these findings and completed the present invention.
iPS cells (1383D2; Center for iPS Cell Research and Application, Kyoto University) (4000 cells) were seeded on a 96-well plate (corning), and iPS-derived human non-hemogenic endothelial cells were produced on the plate according to the method in the above-mentioned 1-1. The medium for the cells containing a CD59 antibody (1 μg/ml) was added at 100 μl/96 well, and the cells were incubated at 37° C. for 1 hr. Then, an equal amount of the same medium (containing 6% (v/v) human serum [BIOPREDIC Inc. SER018A050F018], 20% (v/v) culture supernatant collected in (1-4), LPS (Lipopolysaccharide) 2 μg/ml) was added to the cell culture medium (therefore, the concentration of human serum in the medium after addition was 3% (v/v), and the concentration of the culture supernatant collected in (1-4) was 10% (v/v)), and the cells were incubated at 37° C. for 24 hr. […] After washing 3 times with PBS(—), and quantitative analysis was performed by a cell analyzer 6500HS (GE Healthcare). The obtained numerical value was calculated as a value relative to the value of 4′,6-diamidino-2-phenylindole (DAPI). […]

For assay [2], the system named is iPS cell-derived non-hematopoietic human vascular endothelial cells. Put plainly: Formation of complement membrane attack complex (MAC) in iPS cell-derived vascular endothelial cells with human serum and liver organoid culture supernatant. It is filed as cell-based. Particulars: Eculizumab 2.028-676 nano mol/L added simultaneously with serum; 3% human serum, 10% organoid culture supernatant, LPS; 24 hr; MAC immunostaining relative to DAPI (FIG. 2). As to the method: iPS cells (1383D2; Center for iPS Cell Research and Application, Kyoto University) (4000 cells) were seeded on a 96-well plate (corning), and iPS-derived human non-hemogenic endothelial cells were produced on the plate according to the method in the above-mentioned 1-1. The medium for the cells containing a CD59 antibody (1 μg/ml) was added at 100 μl/96 well, and the cells were incubated at 37° C. for 1 hr. […] After washing 3 times with PBS(—), and quantitative analysis was performed by a cell analyzer 6500HS (GE Healthcare). The obtained numerical value was calculated as a value relative to the value of 4′,6-diamidino-2-phenylindole (DAPI). […]
The action of complement factor V C5 antibody Eculizumab (AB00296, Absolute Antibody Ltd) on the formation of complement membrane attack complex in iPS cell-derived non-hematopoietic human vascular endothelial cells by using iPS cell-derived liver organoid culture supernatant and human serum was tested. The membrane complex was formed and detected by the method described in the above-mentioned (1-5) except that Eculizumab was added at a concentration of 2.028-676 nano mol/L simultaneously with the serum.

B1: Eculizumab (antibody, chains of the INN, looked up)
heavy: QVQLVQSGAEVKKPGASVKVSCKASGYIFSNYWIQWVRQAPGQGLEWMGEILPGSGSTEYTENFKDRVTMTRDTSTSTVYMELSSLRSEDTAVYYCARYFFGSSPNWYFDVWGQGTLVTVSSASTKGPSVFPLAPCSRSTSESTAALGCLVKDYFPEPVTVSWNSGALTSGVHTFPAVLQSSGLYSLSSVVTVPSSNFGTQTYTCNVDHKPSNTKVDKTVERKCCVECPPCPAPPVAGPSVFLFPPKPKDTLMISRTPEVTCVVVDVSQEDPEVQFNWYVDGVEVHNAKTKPREEQFNSTYRVVSVLTVLHQDWLNGKEYKCKVSNKGLPSSIEKTISKAKGQPREPQVYTLPPSQEEMTKNQVSLTCLVKGFYPSDIAVEWESNGQPENNYKTTPPVLDSDGSFFLYSRLTVDKSRWQEGNVFSCSVMHEALHNHYTQKSLSLSLG
light: DIQMTQSPSSLSASVGDRVTITCGASENIYGALNWYQQKPGKAPKLLIYGATNLADGVPSRFSGSGSGTDFTLTISSLQPEDFATYYCQNVLNTPLTFGQGTKVEIKRTVAAPSVFIFPPSDEQLKSGTASVVCLLNNFYPREAKVQWKVDNALQSGNSQESVTEQDSKDSTYSLSSTLTLSKADYEKHKVYACEVTHQGLSSPVTKSFNRGEC
notes: antibody against the complement component C5, used as a therapeutic agent for atypical hemolytic uremic syndrome
Take B1: the “amount of MAC deposition” value in assay [1] and in assay [2] was “decreases in a dose-dependent manner” each time.
